The values below are quoted from earlier work in patent US20060058225A1, “Used of inhibitors of phospholipase a2 for the treatment, prevention or diagnosis of neural inflammatory or demyelinating disease” (McGill University, priority 2002, published 2006).

The subject of this series is EAE. Particulars: timing of treatment not stated.

In the case of MPQX, the “clinical score in treated animals” value is listed as 0.8.
